Experimental data reported in ChEMBL document CHEMBL1140113, “Structural requirements for drug inhibition of the liver specific human organic cation transport protein 1” (J Med Chem, 2008).

Molecular target: T1, Solute carrier family 22 member 1 (Homo sapiens, UniProt O15245)
T1 sequence (O15245 whole entry): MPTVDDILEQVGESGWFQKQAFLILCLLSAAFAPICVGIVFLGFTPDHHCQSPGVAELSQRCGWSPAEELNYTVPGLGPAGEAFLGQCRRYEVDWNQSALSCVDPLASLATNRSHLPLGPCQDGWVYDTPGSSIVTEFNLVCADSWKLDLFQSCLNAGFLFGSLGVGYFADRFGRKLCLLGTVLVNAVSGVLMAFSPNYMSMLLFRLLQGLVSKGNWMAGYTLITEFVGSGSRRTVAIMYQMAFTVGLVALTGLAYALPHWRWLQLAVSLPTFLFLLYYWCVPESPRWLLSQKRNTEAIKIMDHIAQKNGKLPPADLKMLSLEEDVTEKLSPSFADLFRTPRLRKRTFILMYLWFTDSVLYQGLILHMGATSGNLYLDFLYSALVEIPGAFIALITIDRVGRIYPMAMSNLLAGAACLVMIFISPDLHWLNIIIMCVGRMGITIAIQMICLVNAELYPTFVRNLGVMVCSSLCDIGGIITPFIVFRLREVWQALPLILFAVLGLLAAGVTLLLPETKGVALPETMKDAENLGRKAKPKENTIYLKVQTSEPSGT
Assay type: cell-based
Conditions: hek293

**Q.** With FLUPENTIXOL as the sequence, how does the IC50 read?
**A.** 89.5 µM
